Only a part is listed here, and it is no random draw. Activity calls are given as the source filed them.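 How the source made its calls: active means activation, scaled between plate controls, above about 75% (limit read from the data); inactive means activation under that limit.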
Test: inhibitors of zVAD-triggered necroptosis, primary screen, L929 cells (AID 1377);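 further: 0% = zVAD with DMSO and 100% = DMSO alone without zVAD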
Conditions: ATP luminescence, 24 h, at 10 µM, active compounds read high; with zVAD 60 µM unless noted

SMILES	viability rescue
CS(=O)(=O)c1cc([N+](=O)[O-])c2no[n+]([O-])c2c1	inactive: -0.49%
CN(C(=O)Cc1ccccc1)[C@@H]1CC[C@]2(CCCO2)C[C@H]1N1CCCC1	inactive: -0.71%
CCOP1(=S)c2c(C)nn(CCC#N)c2N=C(c2ccc(F)cc2)N1C (stereo not drawn)	inactive: -0.38% [with zVAD 20 µM]
O=[N+]([O-])c1ccc2c(c1)nnn2O	inactive: 1.4%
NC(=O)Nc1ccc([As](=O)(O)O)cc1	inactive: -0.41%
O=[As](O)(c1cccc(O)c1)c1cccc(O)c1	inactive: 0.53%
Cc1cccc(OCC(=O)OC2CN3CCC2CC3)c1 (stereo not drawn)	inactive: 0.08%
O=C(OC1CN2CCC1CC2)c1ccc(Cl)cc1 (stereo not drawn)	inactive: 0.34%
O=[As](O)(O)c1cccnc1	inactive: -0.18%
COc1cc(C2NCCC3(OCCO3)C2(C)C)cc(OC)c1OC (stereo not drawn)	inactive: 0.11%
Nc1cccc2c([As](=O)(O)O)cccc12	inactive: 0.91%
Cc1ccc(NCCc2c([N+](=O)[O-])cc([N+](=O)[O-])cc2[N+](=O)[O-])cc1	inactive: 0.32%
CCCOP(=S)(Nc1nc(N)cc(=O)[nH]1)OCCC	inactive: 0.54%
CC(C)(C)C(=O)NC(Sc1ncccn1)C(Cl)(Cl)Cl (stereo not drawn)	inactive: 0.12%
Clc1n[nH]nc1-c1nn[nH][15n]1	inactive: -0.37% [with zVAD 20 µM]
O=P1(Nc2ccccn2)COc2ccccc2OC1	inactive: 0.04% [with zVAD 20 µM]
CCOP(=O)(Nc1ccc(C)cn1)OCC	inactive: 0.55%
CC(C)/C=N\N=C(\N)N[N+](=O)[O-]	inactive: 0.73%
CC1(CBr)Cn2c(nc3ccccc3c2=O)S1 (stereo not drawn)	inactive: -0.45%
O=[As](O)(c1ccccc1Br)c1ccccc1Br	inactive: 0.1%
O=C(/C=C/c1ccccc1)OC1CN2CCC1CC2 (stereo not drawn)	inactive: 0.15%
CC1CCC(C(C)C)C(OP(=O)(Nc2ccccn2)c2ccccc2)C1 (stereo not drawn)	inactive: -0.21%
Cc1nn(-c2ccccc2)c2c1P(=O)(N1CCOCC1)N(C)C(c1ccccc1)=N2 (stereo not drawn)	inactive: -0.47% [with zVAD 20 µM]
Nc1cccc([As](=O)(O)c2ccccc2)c1	inactive: -1.24%
O=P1(Nc2ccc(Br)cn2)COc2ccccc2OC1	inactive: 2.05% [with zVAD 20 µM]
O=[As](O)(c1cccs1)c1cccs1	inactive: 0.06%
Cc1ccc(OCC(=O)OC2CN3CCC2CC3)cc1 (stereo not drawn)	inactive: 0.29% [with zVAD 20 µM]
O=P1(Nc2ncccn2)COc2ccccc2OC1	inactive: 1.05% [with zVAD 20 µM]

Source: PubChem BioAssay AID1377 (University of Pittsburgh Molecular Library Screening Center, 2008)
